Assay results as given in patent US20220357341A1, “COMPOSITIONS AND METHODS FOR AN IL-17 TARGET ENGAGEMENT ASSAY WITH SMALL MOLECULE MODULATORS” (Janssen Pharmaceutica NV, priority 2019, published 2022).

By UniProt entry, the sequences of proteins in these tests, tags left out. Residues count along the entry.
UniProt Q16552, 24-155: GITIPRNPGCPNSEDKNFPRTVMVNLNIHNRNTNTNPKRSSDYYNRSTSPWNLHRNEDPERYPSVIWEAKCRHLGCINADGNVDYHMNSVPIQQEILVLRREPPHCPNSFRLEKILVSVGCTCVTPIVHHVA

Molecular target: T1, IL-17 (Homo sapiens, UniProt Q16552)
T1 construct: serial dilutions of recombinant IL-17 were prepared in diluent
Test: Free IL-17 ELISA: capture antibody of DuoSet ELISA kit DY317 paired with mAb4538 as detection agent, IL-17 titration with 10 μM SM modulator
Assay type: binding
Settings: capture antibody of DuoSet ELISA kit DY317, detection agent mAb4538 500 ng/ml, FIGS. 2A-2F
Method: Two-fold and 8-point serial dilutions of recombinant IL-17 were prepared in diluent starting from 1 ng/ml, in duplicate. For testing differentiating property on SM modulators, IL-17 calibration samples were prepared in the presence of 10 μM SM modulators or vehicle control containing 0.1% DMSO. IL-17 samples were incubated for 1 hour at 37° C.
High binding 96-well plates were coated with 100 μL/well of 4 μg/ml capture antibody in PBS overnight at room temperature. Coated plates were washed 6×400 μL/well on plate washer (Zoom HT Microplate Washer) and blocked with 300 μL/well blocker (1% BSA in PBS) at room temperature for 2.5 hours followed by 6×400 μL/well on plate washer.
Samples were prepared by incubating titrated IL-17 with SM modulators at final concentration of 10 μM. IL-17 levels were measured in ELISA assay by adding 95 μL/well samples to the capture antibody coated plates. […] Reaction was then stopped by addition of 50 μL/well of stop solution and plates were measured in plate reader at 450-540 nm.
Optical density (OD) readout from plate reader (Molecular Devices Spectra Max 340fPC) were analyzed with Softmax Pro6.3 and GraphPad Prism, and plotted as dose response curve of OD values vs IL-17 concentrations.

B1: mAb4538: IL-17 antibody from Janssen Biotech, Inc., disclosed in U.S. Pat. No. 8,519,107; LC SEQ ID NO: 9, HC SEQ ID NO: 10 (antibody)
heavy: QVQLQQSGPGLVKPSQTLSLTCAISGDSVSSSSAAWGWIRQSPSRGLEWLGRISYRSKWYNDYAVSVKSRITINPDTSKNQFSLQLNSVTPEDTAVYYCAREVDSMYYSYFDIWGQGTLVTVSSASTKGPSVFPLAPSSKSTSGGTAALGCLVKDYFPEPVTVSWNSGALTSGVHTFPAVLQSSGLYSLSSVVTVPSSSLGTQTYICNVNHKPSNTKVDKKV[sequence of human IgG1 Fc not given]
light: EIVLTQSPATLSLSPGERATLSCRASQNVWAFYLAWYQQKPGQAPRLLIYGASNRATGIPARFSGSGSGTDFTLTISSLEPEDFAVYYCQQYRSTLSLTFGQGTKVEIKGQPKAAPSVTLFPPSSEELQANKATLVCLISDFYPGAVTVAWKADSSPVKAGVETTTPSKQSNNKYAASSYLSLTPEQWKSHRSYSCQVTHEGSTVEKTVAPTECS
modifications: HC of mAb4538 and mAb732; LC of mAb4538 and mAb3584
detection of free IL-17 versus SM modulator-bound IL-17 (OD vs IL-17 concentration): only free IL-17 (that is not SM modulator bound) could be detected
